The text below walks through data of patent publication US11617748B2, “Meclozine derivatives and diclazuril derivatives for use in the prevention and/or the treatment of disorders associated to the inflammation induced by P. acnes” (priority 2016, dated 2023).

The test system of the data set is primary human keratinocytes (NHDK). Description: MTT viability of NHDK in the in vitro psoriasis-like model (M5). Particulars: NHDK + M5, 48 h; JAK inhibitor 6.25 μM; meclozine, diclazuril 0.39 to 12.5 μM. As to the method:
Cell culture, pretreatment and stimulation. The immortalized human keratinocyte cell line HaCaT, fibroblast MRC5 were grown in Dulbecco's modified Eagle's medium-Glutamax-I (DMEM) with 1 mM sodium pyruvate. The immortalized human monocytic cell line ThP1 was grown in Roswell Park Memorial Institute 1640 Medium-Glutamax-I (RPMI). DMEM and RPMI were supplemented with 0.1% and 10% heat-inactivated fetal calf serum (Invitrogen), and an antibiotic/antimycotic solution (10 U/ml Pencillin, 10 μg/ml Streptomycin, 0.25 μg/ml Amphoterin) at 37° C. in humidified atmosphere containing 5% CO2 as described (Life Technologie). Primary human keratinocytes (NHDK) and fibroblast (HDF) were grown in the KGM-Gold and in FGM-2 Bullet Kit, respectively, as described by the manufacturer (Lonza). The immortalized cell lines were routinely tested to assess the absence of Mycoplasma infection. Cells, cultivated in 6- or 96-well polystyrene plates, were pretreated with appropriate molecule solution for 1 to 48 h at 37° C. in the dark at the appropriate concentration. Then, for stimulation, cells were incubated for 15 min to 24 h with the P. acnes suspension adjusted at the appropriate concentration at 37° C. in 5% CO2. […]
Cell viability assays. […] After thorough mixing, the absorbance was measured at 540 nm.

As for Jak Inhibitor I, the “decrease of the cell viability (MTT)” value turned out to be 24.4%.
